For the assay, the system named is M. smegmatis. In words: MIC by microplate Alamar blue assay, M. smegmatis wild-type and recombinant strains. As to conditions: M. smegmatis before deletion of cydAB (wild-type).

Molecules are shown by their SMILES.

As for `COc1ccn2nc(C)c(C(=O)NCc3ccc(N4CCC(c5ccc(OC(F)(F)F)cc5)CC4)cc3)c2c1` [TB47], the MIC – broadly, the lowest concentration found to suppress growth – was 50 µg/mL.
